Source: US8288383B2, “3-methyl-2- ( (2S) -2- (4- (3-methyl-L, 2, 4-oxadiazol-5-YL) phenyl) morpholino) -6- (pyrim-idin-4-yl) pyrimidin-4 (3H) -one as tau protein kinase inhibitor” (Sanofi, priority 2007, dated 2012)

Sequences of proteins named here, by UniProt entry; tags and fusion partners are left off.
UniProt P10635, whole entry: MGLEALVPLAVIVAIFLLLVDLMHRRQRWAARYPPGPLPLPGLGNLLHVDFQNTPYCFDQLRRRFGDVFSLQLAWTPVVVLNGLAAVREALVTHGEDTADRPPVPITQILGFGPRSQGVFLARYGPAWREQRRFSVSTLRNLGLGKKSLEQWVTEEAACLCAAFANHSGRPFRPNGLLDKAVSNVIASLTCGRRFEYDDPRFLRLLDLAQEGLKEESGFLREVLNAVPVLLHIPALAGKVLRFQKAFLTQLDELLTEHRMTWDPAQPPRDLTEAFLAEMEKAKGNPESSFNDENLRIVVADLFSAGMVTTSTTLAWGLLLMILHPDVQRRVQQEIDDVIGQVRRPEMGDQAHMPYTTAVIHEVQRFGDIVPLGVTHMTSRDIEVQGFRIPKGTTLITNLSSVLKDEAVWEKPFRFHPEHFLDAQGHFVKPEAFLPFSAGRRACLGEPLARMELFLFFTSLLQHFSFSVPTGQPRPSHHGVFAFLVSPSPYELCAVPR

Target: CYP2D6 (Homo sapiens, UniProt P10635)
Test: Inhibitory activity on CYP2D6 (human recombinant CYPs)
Settings: recombinant enzyme

Compound: Cn1c(N2CCOC(c3ccc(-n4cccn4)cc3)C2)nc(-c2ccncn2)cc1=O (stereo not shown) [Compound 5, 1-Methyl-2-[2-(4-pyrazol-1-yl-phenyl)-morpholin-4-yl]-1H-[4,4′]bipyrimidinyl-6-one]
- IC50: 1900 nM
